Data reported in publication PMC6222496 (Molecules : A Journal of Synthetic Chemistry and Natural …, 2018).

By UniProt entry, the sequences of proteins in these tests, tags left out. Where a name states a change or a piece, a line headed by the entry shows the natural chain unless it says otherwise.
UniProt P41145: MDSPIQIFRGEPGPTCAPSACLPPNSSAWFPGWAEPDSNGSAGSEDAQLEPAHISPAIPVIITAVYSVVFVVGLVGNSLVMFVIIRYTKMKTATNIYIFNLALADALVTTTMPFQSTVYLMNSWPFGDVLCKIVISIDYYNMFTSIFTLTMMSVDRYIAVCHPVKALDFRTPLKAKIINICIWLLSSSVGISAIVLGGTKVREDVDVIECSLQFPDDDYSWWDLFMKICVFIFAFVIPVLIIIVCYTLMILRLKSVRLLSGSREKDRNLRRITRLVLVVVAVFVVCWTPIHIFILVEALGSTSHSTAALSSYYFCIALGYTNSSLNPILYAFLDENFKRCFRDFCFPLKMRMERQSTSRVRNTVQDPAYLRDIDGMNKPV

Key:
[1] = tested on: rhesus monkeys; conditions: intravenous infusion: bremazocine 0.0032, enadoline 0.001, 0.0032, ethylketazocine 0.01, 0.0032, U50488 0.1 mg/kg/h; cited from earlier work
[2] = tested on: rats; conditions: rats, 5, 10 mg/kg; cited from earlier work
[3] = tested on: Sprague-Dawley rats; conditions: cited from earlier work
[4] = tested on: mice; conditions: cited from earlier work
[5] = tested on: Sprague Dawley rats; conditions: cited from earlier work
[6] = tested on: rats; test: Conditioned place aversion; conditions: 10 mg/kg
[7] = tested on: B6.SJL mice; test: Warm-water (50 °C) tail withdrawal; format: in vivo, mouse; conditions: cumulative dose-response, s.c.
[8] = tested on: mice; conditions: 0.3 and 5.0 mg/kg; cited from earlier work
[9] = tested on: Sprague-Dawley rats; conditions: cited from earlier work; remark: listed apart in the source
[10] = target: hKOR (Homo sapiens, UniProt P41145); test: β-arrestin2 recruitment (PathHunter); format: cell-based; conditions: normalized to vehicle and U50488 maximum response

| SMILES | cocaine self-administration [1] | food reinforcements [1] | water consumption [2] | cocaine-induced hyperactivity [3] | memory in the passive avoidance test [4] | sucrose intake and seeking ([5]; 5 and 10 mg/kg) | sucrose intake ([5]; intracerebroventricular, rats) | aversion to the drug-paired chamber [6] | EC50 (antinociception, % MPE) [7] | novel object recognition task [8] | behavioral sensitization [9] | β-Arrestin Recruitment (PathHunter) Efficacy [10] |
| --- | --- | --- | --- | --- | --- | --- | --- | --- | --- | --- | --- | --- |
| CN(C(=O)Cc1cccc2occc12)[C@H]1CC[C@@]2(CCCO2)C[C@@H]1N1CCCC1 | decreased | decreased | – | – | – | – | – | – | – | – | – | – |
| CN(C(=O)Cc1ccc(Cl)c(Cl)c1)C1CCC2(CCCO2)CC1N1CCCC1 (stereo not drawn) | – | – | suppress | – | – | – | – | – | – | – | – | – |
| CN(C(=O)Cc1ccc(Cl)c(Cl)c1)[C@@H]1CCCC[C@H]1N1CCCC1 | decreased | decreased | suppress | attenuate | induces memory impairment | reduce | increased sucrose intake | significant aversion | 6.7 mg/kg | disruption | attenuate | 102.6% |
